## Ab-14 light chain CDR variants: yeast mating affinities

Data: MIT Lincoln Laboratory AlphaSeq set, Engelhart et al. 2022, doi:10.1038/s41597-022-01779-4, as distributed in FLAb.

Antigen: PDVDLGDISGINAS, a 14-residue peptide of the SARS-CoV-2 spike HR2 region.

Each scFv is VH, a 15-residue (Gly4Ser)3 linker, VL, as in the parent Ab-14, and differs from it in the CDRs of the light chain only.
VH: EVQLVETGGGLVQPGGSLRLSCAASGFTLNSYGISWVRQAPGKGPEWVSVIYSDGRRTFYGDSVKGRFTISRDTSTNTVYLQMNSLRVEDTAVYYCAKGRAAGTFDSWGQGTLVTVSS
VL: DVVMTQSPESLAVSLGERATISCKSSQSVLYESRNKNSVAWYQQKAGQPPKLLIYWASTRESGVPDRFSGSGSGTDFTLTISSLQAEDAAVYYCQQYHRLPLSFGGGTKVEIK

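Phage display of a naive human antibody library on the peptide gave the parent. The library (AAYL50) carries one to three amino acid substitutions per variant, with no insertions or deletions. Affinity was read by AlphaSeq, a pooled yeast mating assay with surface-displayed partners. After mating in shaken culture at 30 °C for 16 h, diploids were selected and their barcode pairs sequenced. Each replicate has its own calibration line, from reference interactions of the BCL2 family. Each pool was mated in three replicate cultures.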

Variants are written as CDR1, CDR2 and CDR3 of the light chain (limits as in the source). Parent: KSSQSVLYESRNKNSVA, WASTRES, QQYHRLPLS. Values are log10 of the apparent Kd in nM; lower means stronger binding. "ND" marks a missing value. The strain was present, yet no cells mated with the target were sequenced in that replicate, which points to weak or no binding.

With KSSPSVLYESRNKNSVA | WASFRES | QQMHRLPLS the result was ND, ND, ND (controls 1 of 9).
With KSSQSVLTYSRNKNSVA | WASTEES | QQYHRLPLS the result was 2.52, 2.40, 2.42 (controls 5 of 9).
With KSSQSVLYESRNKNSVA | WASQRES | QQYHRDSLS the result was ND, ND, ND (controls 3 of 9).
With KSSMSVLKESRNKNSVA | WASTRES | QQYHRLPNS the result was ND, 4.22, ND (controls 0 of 9).
With KSAQSVLYESRNKNSVA | WASTRES | CQYHRLPLS the result was ND, ND, ND (controls 1 of 9).
With KSSQSVLLESRNKNSVA | WASLRES | QQYHRYPLS the result was 2.20, 2.39, 2.20 (controls 2 of 9).
With KSSWSQLYESRNKNSVA | WASTRES | QQYHRLPCS the result was ND, ND, ND (controls 0 of 9).
With KSSQSVLYESRPKNSVA | WASTRES | QQYHRLPFS the result was 1.00, 1.77, 3.27 (controls 0 of 9).
With KSSVSVLYFSRNKSSVA | WASTRES | QQYHRLPLS the result was 3.78, 3.43, 4.25 (controls 7 of 9).
With KSSQSGLYESNNKNSVA | WASTRES | QQYHRKPLS the result was ND, ND, ND (controls 4 of 9).
With KSCQSALYESRNKNSVA | WASTRES | QQYHRLLLS the result was ND, ND, ND (controls 3 of 9).
With KSSQSVLYESRNKNDVA | WASNRES | QQYHRVPLS the result was 3.84, 3.73, ND (controls 2 of 9).
With KSSQSVLYEWRNKNSVA | WASTRYR | QQYHRLPLS the result was ND, 3.17, 4.86 (controls 2 of 9).
With KSSQSVLYESRNKNSVA | WASTREW | QQYHSLMLS the result was ND, 3.02, 3.34 (controls 1 of 9).
With WSSQSVLYESRNKNSVN | WASCRES | QQYHRLPLS the result was 2.24, 1.94, 2.11 (controls 2 of 9).
With KSSQSVLYESVNKNIVQ | WASTRES | QQYHRLPLS the result was ND, ND, 5.09 (controls 0 of 9).
With KSSQSVLYESRNKSYVA | YASTRES | QQYHRLPLS the result was ND, 3.29, ND (controls 1 of 9).
With KSSISVLYESRNKYSVA | WASTRHS | QQYHRLPLS the result was 1.49, 1.38, 1.29 (controls 0 of 9).
With KSSMSVLYESRNKNSVA | WASTREP | QQYHRPPLS the result was 1.08, 1.27, 1.26 (controls 4 of 9).
With KSSESVLYESRNYNSVA | WASTRES | QQPHRLPLS the result was 1.70, 1.46, 1.75 (controls 3 of 9).
With KSTQSVLYESRNCNSVA | WASTRES | QQYHRVPLS the result was ND, ND, ND (controls 4 of 9).
With KSSQSVLYESMNKNSVA | WASTREA | QQKHRLPLS the result was ND, 3.22, ND (controls 1 of 9).
With KSSQSVLYRSRNKNSVA | WAWCRES | QQYHRLPLS the result was ND, 3.18, ND (controls 2 of 9).
With KSSQSWLFESRNKNSVH | WASTRES | QQYHRLPLS the result was ND, ND, ND (controls 1 of 9).
With KSSQSVLYESRNTNSFA | WASTRMS | QQYHRLPLS the result was ND, ND, ND (controls 1 of 9).
With KSSQSVLYRSRNKNRVA | WASTRES | QQYHRLPLS the result was ND, 1.27, ND (controls 0 of 9).
With KSWQTVLYESRNKNEVA | WASTRES | QQYHRLPLS the result was ND, 2.86, 3.13 (controls 1 of 9).
With KSSQSVLYESRTKNSVI | WASIRES | QQYHRLPLS the result was ND, ND, ND (controls 3 of 9).
With GSSQSVLYESRNKNSVA | WASTRYS | QQYHRLPLF the result was 3.68, ND, 3.24 (controls 0 of 9).
With KSSQRVLYESRNDNSVA | WANTRES | QQYHRLPLS the result was 1.02, 1.58, 1.50 (controls 0 of 9).
With KSSQSVLYESRNKDSVR | WASTVES | QQYHRLPLS the result was 6.00, ND, 5.47 (controls 3 of 9).
With KTSQSVLYCSRNKNSVA | FASTRES | QQYHRLPLS the result was ND, 4.53, 5.09 (controls 0 of 9).
With KSSQSVLYESRMKNSSA | WASTREG | QQYHRLPLS the result was 2.76, ND, ND (controls 0 of 9).
With KSSQSVLYNSRNKNSVA | WASWRES | QQYHMLPLS the result was 3.12, 2.39, 1.90 (controls 2 of 9).
With LSSQSVLYESRPKNSVK | WASTRES | QQYHRLPLS the result was ND, ND, ND (controls 0 of 9).
With KSSQSVLYESRNKNSVA | WASTRWS | QQYERLPLH the result was 3.23, 3.19, 3.63 (controls 5 of 9).

The 2 strongest on average among those seen in every replicate, once more:

CDR-L1	CDR-L2	CDR-L3	log10 Kd (nM) by replicate	control signals
KSSMSVLYESRNKNSVA	WASTREP	QQYHRPPLS	1.08, 1.27, 1.26	4 of 9
KSSQRVLYESRNDNSVA	WANTRES	QQYHRLPLS	1.02, 1.58, 1.50	0 of 9

Empty control strains, which show no peptide, gave a signal in 18% of pairings with library AAYL50; the median was 4.19 and 95% of these signals were weaker than 2.99. No background was subtracted. For each scFv, signals with the empty controls are counted beside the result. In this assay the parent's reference entry averaged 0.65; its copy inside this library read 1.68.